PMC2919064 (Journal of medicinal chemistry, 2010)

Target: T1, HDAC10 (Homo sapiens, UniProt Q969S8)
T1 sequence (Q969S8 1-669): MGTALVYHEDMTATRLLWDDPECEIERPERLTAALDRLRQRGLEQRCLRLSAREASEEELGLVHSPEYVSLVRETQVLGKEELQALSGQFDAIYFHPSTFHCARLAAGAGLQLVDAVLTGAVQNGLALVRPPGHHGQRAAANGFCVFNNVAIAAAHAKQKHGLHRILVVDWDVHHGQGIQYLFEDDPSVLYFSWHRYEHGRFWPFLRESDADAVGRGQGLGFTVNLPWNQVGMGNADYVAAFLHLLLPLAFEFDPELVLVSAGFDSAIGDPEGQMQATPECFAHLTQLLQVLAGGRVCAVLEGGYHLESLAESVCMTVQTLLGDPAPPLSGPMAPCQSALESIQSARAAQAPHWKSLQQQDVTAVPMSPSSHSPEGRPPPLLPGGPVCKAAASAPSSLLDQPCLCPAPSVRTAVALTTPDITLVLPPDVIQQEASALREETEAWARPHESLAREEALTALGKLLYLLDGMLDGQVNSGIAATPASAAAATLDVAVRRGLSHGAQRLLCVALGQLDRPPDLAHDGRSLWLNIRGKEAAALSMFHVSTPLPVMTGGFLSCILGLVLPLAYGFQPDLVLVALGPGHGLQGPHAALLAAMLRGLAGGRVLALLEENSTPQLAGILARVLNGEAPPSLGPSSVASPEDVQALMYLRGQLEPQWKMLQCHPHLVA
Assay: HDAC isoform inhibition assay
Conditions: read-out: IC50 HDAC10; tested at Nanosyn; 17 hours at 25 °C

Question: For `O=C(CCCCCCC(=O)Nc1ccccc1)NO` [SAHA (1a), suberoylanilide hydroxamic acid, reference compound], which IC50 is on record?
Answer: Its IC50 is 72 nM.
